AlphaSeq binding of Ab-14 light chain variants to a spike HR2 peptide

From the AlphaSeq antibody data of Engelhart et al. 2022 (doi:10.1038/s41597-022-01779-4), copy in the FLAb collection.

Binding partner: SARS-CoV-2 spike HR2 peptide, sequence PDVDLGDISGINAS.

Ab-14 is the parent antibody, in scFv form: VH, then the linker GGGGSGGGGSGGGGS, then VL. The heavy chain is unchanged in all variants.
VH: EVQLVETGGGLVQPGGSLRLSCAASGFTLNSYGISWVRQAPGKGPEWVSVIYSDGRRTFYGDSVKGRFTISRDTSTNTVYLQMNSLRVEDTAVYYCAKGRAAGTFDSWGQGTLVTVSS
VL: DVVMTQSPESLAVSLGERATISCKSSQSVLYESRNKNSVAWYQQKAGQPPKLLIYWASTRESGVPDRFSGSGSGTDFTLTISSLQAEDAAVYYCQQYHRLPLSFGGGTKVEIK

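The starting antibody came from a phage panning campaign against this peptide. Library AAYL50 holds single substitutions and randomly drawn double and triple substitutions in the CDRs. In AlphaSeq, yeast of one mating type display the scFv and yeast of the other type display the target. Binding brings cells together so that they mate, and sequencing counts the barcode pairs among the diploids. Each replicate has its own calibration line, from reference interactions of the BCL2 family. Each pool was mated in three replicate cultures.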

Each variant is given by its three light chain CDRs, as the data file delimits them; those of the parent are KSSQSVLYESRNKNSVA, WASTRES, QQYHRLPLS.
Numbers give log10(Kd / nM), so 0 is 1 nM and 3 is 1 µM. Smaller is tighter.
Replicates are averaged; those with no signal do not enter the mean.
A pair that was not seen in that replicate is written "n.d."; this usually means weak binding, but a binder can also be missed.
Parent in this assay: reference entry 0.65, copy in this library 1.68.

CDR-L1,CDR-L2,CDR-L3,log10 Kd (nM) by replicate,"mean, log10 nM",signal with controls
KSSRSVLYESRNKRSVA,WASTRPS,QQYHRLPLS,3.55 3.32 n.d.,3.44,0 of 9
KSSQSVAYESRNKNSVA,WASTKES,QQYHRNPLS,5.47 2.83 2.42,3.58,3 of 9 (4.34)
PSSQSVLYESRNKNSVA,WASTMES,QQYFRLPLS,n.d. n.d. n.d.,n.d.,0 of 9
KSSQYILYESRNKNSVA,WASTRVS,QQYHRLPLS,n.d. n.d. n.d.,n.d.,1 of 9 (3.14)
KSSQSVLYEERDKNSVA,WTSTRES,QQYHRLPLS,0.83 0.89 1.01,0.91,3 of 9 (4.68)
KSSQSVLYESRNKNSIA,WAPTRES,QQYHDLPLS,1.10 1.03 1.05,1.06,0 of 9
KSSESVLYENRNKNSVA,WASTRES,QQYHRLPLM,4.98 3.79 4.72,4.50,6 of 9 (4.57)
KSSQSVLYEDRNKNSWA,WASTRES,QQYHPLPLS,n.d. n.d. n.d.,n.d.,2 of 9 (4.55)
KSSQSVLYESRNKNSVA,WASTREV,QQYYRLPTS,n.d. n.d. n.d.,n.d.,2 of 9 (4.39)
HSVQSVLYESRNKNGVA,WASTRES,QQYHRLPLS,4.06 3.20 3.53,3.60,4 of 9 (4.43)
HSRQSVLYESRNKNSVA,WASTCES,QQYHRLPLS,4.49 3.95 4.43,4.29,8 of 9 (4.56)
KSSQSVLYESRNKNSVV,WASTRES,QQYHRLGLS,n.d. n.d. n.d.,n.d.,0 of 9
KSSQSVLYESGNKNSVA,CASTRES,QMYHRLPLS,1.31 1.27 1.24,1.28,4 of 9 (3.88)
SSSQSVLYESRNKNSVA,WASTRES,QRYHRLPFS,1.41 1.52 1.62,1.52,3 of 9 (4.44)
KSSQSVLYESREQNSVA,WASTRES,QQYHSLPLS,0.65 0.48 0.19,0.44,0 of 9
WSSQSVCCESRNKNSVA,WASTRES,QQYHRLPLS,3.42 3.15 2.40,2.99,2 of 9 (4.13)
KSSQSVLYESLNKNSVA,WCSTRES,AQYHRLPLS,n.d. n.d. n.d.,n.d.,3 of 9 (4.33)
KFSQSVLYESPNKNSVA,WASTRES,QQYHRLPDS,0.77 0.69 0.61,0.69,2 of 9 (4.19)
KDSNSVLYESRNKNSHA,WASTRES,QQYHRLPLS,n.d. n.d. n.d.,n.d.,0 of 9
KSSQSVLYELRMKNSVA,WASTRES,QQYHFLPLS,n.d. n.d. n.d.,n.d.,1 of 9 (4.29)
KSSQSVLAESRNKNSVA,WASTRET,QEYHRLPLS,0.63 0.88 0.70,0.74,2 of 9 (3.61)
KSSQSVLFEHRNKNSVA,WASTRES,QQYHRGPLS,2.65 2.19 2.20,2.35,1 of 9 (5.16)
KSSQSVLYESRPKNSVA,WASTDES,QQYHRSPLS,n.d. n.d. n.d.,n.d.,1 of 9 (2.54)
QSSQSVLMESRNKNSVA,WASTRES,QQYMRLPLS,0.81 0.92 0.92,0.88,1 of 9 (4.36)
KSSQSVLYESRDYNSVA,WASTNES,QQYHRLPLS,5.41 4.63 4.94,4.99,4 of 9 (4.80)
KSSQSVLYESRNKNSVT,WASTRES,QQYCRLPLW,n.d. n.d. n.d.,n.d.,0 of 9
HSSYSVLYESRNKNSVA,WASTRES,QQYHRLPWS,3.00 2.81 2.97,2.92,0 of 9
KSSYSVLYESRNKNSVA,WAPTRES,QQYHRLPLR,n.d. n.d. 3.07,3.07,1 of 9 (3.73)
KSSQEVLYESRNENSVA,WASRRES,QQYHRLPLS,0.43 0.80 0.76,0.66,3 of 9 (4.50)
KSSQIVLYESRNKNSVK,WASTRES,FQYHRLPLS,n.d. n.d. n.d.,n.d.,2 of 9 (4.60)
KSSQSVLYESRNKNSVA,WNSTREG,QQYIRLPLS,2.26 4.17 3.12,3.18,0 of 9
KSSDGVLYESRNKNSVA,SASTRES,QQYHRLPLS,-0.12 0.26 -0.05,0.03,0 of 9
KGSQSVDYESWNKNSVA,WASTRES,QQYHRLPLS,n.d. 3.13 n.d.,3.13,0 of 9
KSSQSVLYESSNKNSVA,WASTRES,GQYHRLPLS,0.76 1.09 0.88,0.91,1 of 9 (3.01)
KSSQSVLYESRVKNSVA,WASTRES,QVGHRLPLS,1.25 1.41 1.39,1.35,3 of 9 (4.72)
KSSQSVLYESRNKNSHA,WNSTREA,QQYHRLPLS,n.d. 2.80 n.d.,2.80,1 of 9 (3.85)
KSSQSVLYESRNKNGVA,WASTREG,QQYHPLPLS,3.58 n.d. n.d.,3.58,1 of 9 (2.89)
KSSQSVLYHSRNTNSVA,WASTFES,QQYHRLPLS,n.d. n.d. n.d.,n.d.,1 of 9 (4.40)
KESQSVLYESRNKISVA,WASTRES,QQYHRLPLS,n.d. 3.60 6.22,4.91,4 of 9 (4.15)
KSSQSVLYESRNKNSVA,WASNRES,QQYHRLPLR,3.72 n.d. 3.24,3.48,0 of 9
KSSGSVLYPSRNKNSVA,WASTRES,QQYHRKPLS,n.d. n.d. n.d.,n.d.,1 of 9 (5.22)
KSSQSVLYESRAKNSWA,WCSTRES,QQYHRLPLS,n.d. n.d. n.d.,n.d.,0 of 9
KSSQRVLYESRNKNSVA,WASTRGS,QQYHRLNLS,n.d. 3.75 n.d.,3.75,0 of 9
KSSQSVLYASRNKNFVA,WASTRES,QQYHRCPLS,2.24 n.d. 4.85,3.54,1 of 9 (4.40)
KSSQSVLYESRNKNSVV,RASRRES,QQYHRLPLS,n.d. n.d. n.d.,n.d.,4 of 9 (3.95)
KSSQSVLYESRSKNSVA,WASTREA,QQYIRLPLS,1.01 1.42 1.24,1.22,1 of 9 (3.53)
KHSQSVLYESRNKNSVA,WCSTRES,QQYGRLPLS,2.17 2.47 2.27,2.30,2 of 9 (3.96)

The opening 3 entries, copied out:

CDR-L1,CDR-L2,CDR-L3,log10 Kd (nM) by replicate,"mean, log10 nM",signal with controls
KSSRSVLYESRNKRSVA,WASTRPS,QQYHRLPLS,3.55 3.32 n.d.,3.44,0 of 9
KSSQSVAYESRNKNSVA,WASTKES,QQYHRNPLS,5.47 2.83 2.42,3.58,3 of 9 (4.34)
PSSQSVLYESRNKNSVA,WASTMES,QQYFRLPLS,n.d. n.d. n.d.,n.d.,0 of 9

Background: pairings of library AAYL50 with three empty control strains gave a value in 18% of cases (median 4.19, 5th percentile 2.99). Values in that range, when seen in few replicates, are hard to tell from nonspecific mating. For each scFv, signals with the empty controls are counted beside the result, with their mean in brackets.